# Source: patent US10052318B2, “Glutamate agents in the treatment of mental disorders” (YALE UNIVERSITY, priority 2005, dated 2018)
# Values joined by “and” are separate entries in the source; they are usually repeats but may differ in a detail not shown here. Equal entries are not always repeated. Where two headings read alike, the source gives them in different places.
# How the values were obtained:
# [1] = tested on: patients with serotonin reuptake inhibitor-resistant obsessive-compulsive disorder
# [2] = tested on: patients treated with riluzole; details: Aventis 2004; cited from earlier work
smiles,measurement,setting,value
"Nc1nc2ccc(OC(F)(F)F)cc2s1 [Riluzole, riluzole]",HAM-D scores for the entire group over time,"[1]; F1,10.8=9.12, p=0.012",improved significantly
same,Y-BOCS scores over time,"[1]; F1,11.1=19.78, p=0.001",improved significantly
same,"patients with asymptomatic, transient increases in at least one LFT",[1]; LFT at baseline and every three weeks,four of thirteen
same,Mean ALT,[1]; baseline,22.9 (±12.3)
same,Mean Alk Phos,[1]; baseline,75 (±13.5)
same,overall reduction in mean Y-BOCS for the entire cohort,[1]; baseline to end of study,42%
same,patients categorized as treatment responders,"[1]; five of thirteen, 35% or greater reduction in baseline Y-BOCS, final Y-BOCS of 16 or less, clinician consensus",39%
same,Mean HAM-A at end of study,"[1]; group of 13 patients, end of study",12 (±2.5)
same,increase in ALT in one patient,"[1]; one patient, asymptomatic",exceeded nine times normal
same,CGI Treatment Response,"[1]; one table line per patient, riluzole 50 mg twice a day added to SRI, study duration 6, 9 or 12 weeks",3 (3×) and 4 and 2
same,Post HAM-A Score,"[1]; per patient, after riluzole 50 mg twice a day added to SRI, 6-12 weeks, * = >35% reduction",3
same,Mean ALT,[1]; week six,35.3 (±28.3)
same,Mean AST,[1]; week six,22 (±13.84)
same,Mean Alk Phos,[1]; week six,83.7 (±24.4)
same,patients experiencing LFT elevations greater than five times the upper limit of normal,[2],approximately 2%
same,patients experiencing elevations in at least one LFT measure,[2],more than 50%
